## AlphaSeq binding of Ab-14 heavy chain variants to a spike HR2 peptide

Source: Li et al. 2023 (doi:10.1038/s41467-023-39022-2), MIT Lincoln Laboratory and A-Alpha Bio; data file from the FLAb repository.

The target is the same throughout: PDVDLGDISGINAS, from the HR2 region of SARS-CoV-2 spike.

Parent: Ab-14, a human scFv built as VH, a 15-residue (Gly4Ser)3 linker, VL. Only the CDRs of the heavy chain vary.
VH: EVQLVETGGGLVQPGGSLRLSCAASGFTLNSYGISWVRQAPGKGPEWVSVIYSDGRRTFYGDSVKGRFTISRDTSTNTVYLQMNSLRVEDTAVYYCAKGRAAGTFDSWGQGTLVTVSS
VL: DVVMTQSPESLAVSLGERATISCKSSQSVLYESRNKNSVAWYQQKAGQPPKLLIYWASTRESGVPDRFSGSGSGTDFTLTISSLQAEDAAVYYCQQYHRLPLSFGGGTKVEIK

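Phage display of a naive human antibody library on the peptide gave the parent. These sequences belong to a second round, designed from the earlier measurements on random variants of the parent. Their group label is 14H_En_Gen (En: ensemble of fine-tuned language models; Gen: genetic algorithm). AlphaSeq pools MATa yeast showing the antibodies with MATalpha yeast showing the peptide. After mating in shaken culture at 30 °C for 16 h, diploids were selected and their barcode pairs sequenced. The ratio of observed to expected reads was calibrated, replicate by replicate, on BCL2-family standards whose Kd was known from biolayer interferometry. Mating was done six times.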

Each variant is given by its three heavy chain CDRs, as the data file delimits them; those of the parent are GFTLNSYGIS, VIYSDGRRTFYGDSVK, GRAAGTFDS.
The read-out is the apparent dissociation constant on a log10 scale (nM): the lower, the stronger.
"ND" marks a missing value. The strain was present, yet no cells mated with the target were sequenced in that replicate, which points to weak or no binding.
The authors averaged sequences with at least three values out of six and counted those with two or fewer as poor binders.

| # | CDR-H1 | CDR-H2 | CDR-H3 | log10 Kd, replicates | empty controls |
|---|---|---|---|---|---|
| 1 | GFDLNEYGIS | VIYADGVRTSYADSVK | GGNAGTFDV | 1.12 / 0.60 / ND / ND / 0.96 / ND | 0/18 |
| 2 | GFDLNEYGIS | VIYADGKRTAYIDSVK | GNQAGTFDL | -0.49 / 0.03 / 0.52 / -0.07 / -0.63 / -0.87 | 0/18 |
| 3 | GFDLNEYGIS | VIYADGMRTAYADSVK | GEVAGTFDE | 0.20 / 0.38 / -0.38 / 0.57 / 0.03 / -0.20 | 0/18 |
| 4 | GFDLNEYGIS | VIYADGQRTAYTDSVK | GENAGTFDI | -0.19 / -0.12 / -0.32 / -0.47 / -0.54 / 0.11 | 0/18 |
| 5 | GFDLNEYGIS | VIYADGIRTAYADSVK | GNVAGTFDM | -0.20 / 0.35 / -0.14 / -0.17 / 0.65 / 0.03 | 0/18 |
| 6 | GFDLNEYGIS | VIYADGMRTAYADSVK | GENAGTFDM | ND / ND / ND / ND / ND / ND | 0/18 |
| 7 | GFDLNEYGIS | VIYADGKRTAYTDSVK | GNNAGTFDI | -0.20 / -0.38 / -0.48 / -0.24 / -0.26 / -0.21 | 0/18 |
| 8 | GFDLNEYGIS | VIYADGMRTAYTDDVK | GNVAGTFDI | -0.61 / -0.99 / -0.49 / -0.86 / -0.78 / -0.45 | 0/18 |
| 9 | GFDLNEYGIS | VIYADGRRTAYADKVK | GENAGTFDV | -0.20 / -0.61 / -0.21 / -0.39 / 0.06 / -0.18 | 0/18 |
| 10 | GFDLNEYGIS | VIYADGMRTAYADSVK | GNEAGTFDL | 1.30 / 0.64 / 1.26 / 0.28 / 0.51 / 1.61 | 0/18 |
| 11 | GFDLNEYGIS | VIYADGVRTAYTDSVK | GENAGTFDL | -0.05 / -0.18 / -0.53 / -0.53 / -0.35 / -0.35 | 1/18 (1.64) |
| 12 | GFDLNEYGIS | VIYADGMRTAYSDSVK | GEVAGTFDV | ND / 0.17 / 0.82 / 0.35 / 0.64 / 1.84 | 0/18 |
| 13 | GFDLEEYGIS | VIYADGMRTAYADDVK | GENAGTFDV | -0.01 / -0.07 / -0.23 / -0.40 / -0.19 / 0.55 | 0/18 |
| 14 | GFDLNEYGIS | VIYADGRRTAYADKVK | GEVAGTFDV | -0.15 / -0.58 / -0.54 / -0.74 / -0.52 / -0.31 | 0/18 |
| 15 | GFDLNEYGIS | VIYADGSRTAYSDSVK | GNVAGTFDV | 0.13 / -0.20 / -0.41 / -0.25 / -0.35 / 0.06 | 0/18 |
| 16 | GFDLNEYGIS | VIYADGLRTAYADSVK | GEVAGTFDI | -0.38 / -0.39 / -0.51 / -1.02 / 0.58 / -0.67 | 0/18 |
| 17 | GFDLNEYGIS | VIYADGKRTAYADNVK | GEVAGTFDL | -0.15 / -0.67 / -0.41 / -0.80 / -0.32 / -0.13 | 0/18 |
| 18 | GFDLNEYGIS | VIYADGQRTAYTDSVK | GGNAGTFDV | -0.58 / -0.41 / -0.64 / -0.39 / -0.46 / -0.61 | 0/18 |
| 19 | GFDLDEYGIS | VIYADGKRTVYADSVK | GNVAGTFDL | 0.28 / 0.39 / 0.28 / 0.77 / 0.64 / 0.72 | 0/18 |
| 20 | GFDLNEYGIS | VIYADGMRTAYVDSVK | GENAGTFDI | -0.11 / -0.72 / -0.74 / -0.82 / -0.34 / -0.55 | 0/18 |
| 21 | GFNLDEYGIS | VIYADGRRTAYADSVK | GNVAGTFDV | -0.47 / -0.01 / -0.40 / -0.48 / -0.29 / -0.56 | 0/18 |
| 22 | GFDLNEYGIS | VIYADGLRTAYADSVK | GQNAGTFDI | 0.05 / 0.27 / -0.22 / -0.64 / -0.30 / -0.27 | 0/18 |
| 23 | GFDLNEYGIS | VIYADGVRTAYADSVK | GEEAGTFDV | -0.15 / -0.63 / -0.97 / -0.71 / -0.19 / -0.31 | 1/18 (3.37) |
| 24 | GFDLNEYGIS | VIYADGQRTAYADKVK | GNVAGTFDV | 0.57 / -0.21 / -0.74 / -0.39 / -0.15 / -0.55 | 0/18 |
| 25 | GFDLNEYGIS | VIYADGKRTAYVDNVK | GNVAGTFDV | -0.32 / -0.70 / -0.94 / -0.46 / -0.64 / -0.57 | 0/18 |
| 26 | GFDLNEYGIS | VIYADGVRTAYADDVK | GANAGTFDV | 0.24 / -0.12 / 0.10 / -0.10 / 0.25 / 0.18 | 1/18 (2.06) |
| 27 | GFDLDEYGIS | VIYADGSRTAYADSVK | GQNAGTFDI | 1.97 / 2.30 / 1.52 / ND / ND / 1.42 | 0/18 |
| 28 | GFDLNEYGIS | VIYADGMRTAYTDSVK | GSNAGTFDI | 2.20 / 2.46 / 2.34 / 1.61 / 2.09 / 2.63 | 0/18 |
| 29 | GFDLNEYGIS | VIYADGQRQAYADSVK | GNVAGTFDV | -0.56 / -0.37 / -0.55 / -0.64 / -0.90 / -0.49 | 0/18 |
| 30 | GFDLDEYGIS | VIYADGMRTAYTDSVK | GNEAGTFDL | -0.33 / -0.53 / -0.40 / -0.70 / -0.81 / -0.35 | 0/18 |
| 31 | GFDLNEYGIS | VIYADGMRKAYADNVK | GNVAGTFDV | -0.31 / -0.61 / -0.71 / -0.59 / -0.52 / -0.96 | 0/18 |
| 32 | GFDLNEYGIS | VIYADGMRTAYADNVK | GNNAGTFDL | 1.23 / 0.95 / 0.40 / 0.56 / 0.48 / 0.50 | 0/18 |
| 33 | GFDLNEYGIS | VIYADGVRTAYSDNVK | GNQAGTFDV | 1.05 / ND / ND / ND / ND / 2.13 | 0/18 |
| 34 | GFDLDEYGIS | VIYADGMRTAYADSVK | GGNAGTFDV | -0.08 / -0.25 / -0.25 / -0.19 / 0.09 / -0.14 | 0/18 |
| 35 | GFDINEYGIS | VIYADGMRTAYADSVK | GNVAGTFDV | 0.34 / -0.49 / 0.66 / -0.37 / 0.49 / 0.26 | 0/18 |
| 36 | GFDLNEYGIS | VIYADGMRTFYADSVK | GNTAGTFDL | -0.19 / -0.13 / -0.45 / -0.59 / -0.25 / -0.01 | 0/18 |
| 37 | GFDLDEYGIS | VIYADGVRTFYADSVK | GEVAGTFDV | 0.06 / -0.38 / -0.45 / -0.48 / -0.47 / -0.40 | 0/18 |
| 38 | GFDLNEYGIS | VIYADGVRTAYTDSVK | GNTAGTFDV | 1.06 / 0.33 / 0.90 / 0.24 / -0.10 / 0.23 | 0/18 |
| 39 | GFDLNEYGIS | VIYADGVRTAYSDSVK | GANAGTFDV | 0.36 / -0.39 / 0.28 / -0.46 / -0.13 / -0.22 | 0/18 |
| 40 | GFDLNEYGIS | VIYADGMRTAYADDVK | GENAGTFVV | ND / ND / 2.14 / ND / ND / ND | 0/18 |
| 41 | GFDLDEYGIS | VIYADGMRTAYADNVK | GENAGTFDI | 0.32 / 0.19 / -0.22 / 0.26 / 0.01 / -0.25 | 0/18 |
| 42 | GFDLNEYGIS | VIYADGRRSAYADSVK | GNVAGTFDV | -0.28 / -0.53 / -0.14 / -0.89 / 0.25 / 0.18 | 1/18 (1.98) |
| 43 | GFDLNEYGIS | VIYADGMRTYYADSVK | GNNAGTFDV | -0.50 / 0.15 / -0.17 / -1.26 / -1.04 / -0.69 | 0/18 |
| 44 | GFDLDEYGIS | VIYADGQRTAYADKVK | GNVAGTFDV | -0.62 / -0.76 / -1.03 / -0.89 / -0.72 / -0.12 | 0/18 |
| 45 | GFDLNEYGIS | VIYADGVRKAYVDSVK | GNVAGTFDV | -0.15 / -0.42 / -0.36 / -0.29 / -0.44 / -0.22 | 1/18 (4.01) |
| 46 | GFDLNEYGIS | VIYADGVRTAYVDDVK | GNVAGTFDV | -0.08 / -0.84 / -0.41 / -0.65 / -0.68 / -0.06 | 0/18 |
| 47 | GFDLEDYGIS | VIYADGMRTAYSDSVK | GEVAGTFDL | -0.23 / -0.42 / -0.10 / -0.43 / -0.45 / -0.08 | 0/18 |

The first 8 entries again:

| CDR-H1 | CDR-H2 | CDR-H3 | log10 Kd, replicates | empty controls |
|---|---|---|---|---|
| GFDLNEYGIS | VIYADGVRTSYADSVK | GGNAGTFDV | 1.12 / 0.60 / ND / ND / 0.96 / ND | 0/18 |
| GFDLNEYGIS | VIYADGKRTAYIDSVK | GNQAGTFDL | -0.49 / 0.03 / 0.52 / -0.07 / -0.63 / -0.87 | 0/18 |
| GFDLNEYGIS | VIYADGMRTAYADSVK | GEVAGTFDE | 0.20 / 0.38 / -0.38 / 0.57 / 0.03 / -0.20 | 0/18 |
| GFDLNEYGIS | VIYADGQRTAYTDSVK | GENAGTFDI | -0.19 / -0.12 / -0.32 / -0.47 / -0.54 / 0.11 | 0/18 |
| GFDLNEYGIS | VIYADGIRTAYADSVK | GNVAGTFDM | -0.20 / 0.35 / -0.14 / -0.17 / 0.65 / 0.03 | 0/18 |
| GFDLNEYGIS | VIYADGMRTAYADSVK | GENAGTFDM | ND / ND / ND / ND / ND / ND | 0/18 |
| GFDLNEYGIS | VIYADGKRTAYTDSVK | GNNAGTFDI | -0.20 / -0.38 / -0.48 / -0.24 / -0.26 / -0.21 | 0/18 |
| GFDLNEYGIS | VIYADGMRTAYTDDVK | GNVAGTFDI | -0.61 / -0.99 / -0.49 / -0.86 / -0.78 / -0.45 | 0/18 |

Of ten entries with the parent sequence, four were seen in most replicates (averages 0.34 to 2.37), three in one and three in none, so single entries are noisy.
As a blank, each scFv also met three strains without target: over all heavy chain designs, 1% of these pairings were detected, typically at 2.08 and seldom below 0.84. Also given: how often the same scFv was detected with the empty control strains, with their mean in brackets.
A sequence measured in both rounds can read differently, since the two assays cover different ranges.